From patent US20250388669A1 (published 2025)

Sequences of proteins named here, by UniProt entry; tags and fusion partners are left off. Residues count along the entry.
UniProt P25942, 21-193 limits assumed: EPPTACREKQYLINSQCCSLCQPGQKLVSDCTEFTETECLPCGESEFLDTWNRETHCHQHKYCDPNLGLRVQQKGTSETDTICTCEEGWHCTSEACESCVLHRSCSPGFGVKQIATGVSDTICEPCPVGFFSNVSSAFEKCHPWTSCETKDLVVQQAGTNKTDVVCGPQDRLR

Legend:
B7H3 = molecular target: T1, B7H3 (human, UniProt Q5ZPR3 29-466, limits assumed); assay: ELISA or FCM (Example 2)
T1 sequence (looked up): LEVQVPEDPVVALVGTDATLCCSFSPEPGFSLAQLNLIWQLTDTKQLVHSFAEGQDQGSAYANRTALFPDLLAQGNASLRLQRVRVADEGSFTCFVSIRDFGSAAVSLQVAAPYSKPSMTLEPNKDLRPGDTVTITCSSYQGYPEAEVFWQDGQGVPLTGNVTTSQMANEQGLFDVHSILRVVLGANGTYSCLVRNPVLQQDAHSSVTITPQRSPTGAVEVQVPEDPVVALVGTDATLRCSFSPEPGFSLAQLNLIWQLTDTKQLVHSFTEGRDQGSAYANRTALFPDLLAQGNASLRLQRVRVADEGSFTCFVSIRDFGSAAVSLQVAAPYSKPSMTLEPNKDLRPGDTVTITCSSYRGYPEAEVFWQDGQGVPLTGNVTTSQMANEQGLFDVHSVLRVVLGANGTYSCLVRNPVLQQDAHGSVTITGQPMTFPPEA

CD40 = molecular target: T2, CD40 (human, UniProt P25942, in part); assay: CD40 binding (method not given)
T2 construct: In the reporter assay it is whole, on GS-H2-huCD40 cells; also called huCD40

Binder | binding result (B7H3) | EC50 (CD40) [µg/mL]
Ly2138 (other, Tri-specific antibody: B7H3 Fabs, central CD3 Fv, terminal CD28 Fv; Flexible linker is (G4S)2) chain 1: QVQLVQSGAEVKKPGASVKVSCKASGYTFTSYVMHWVRQKPGQGLEWIGYINPYNEGTESTDKFKGRATMTSDKSTSTVYMELSSLRSEDTAVYYCASIYYGYEGTYFGVWGQGTLVTVSSASTKGPSVFPLAPSSKSTSGGTAALGCLVKDYFPEPVTVSWNSGALTSGVHTFPAVLQSSGLYSLSSVVTVPSSSLGTQTYICNVNHKPSNTKVDKKVEPKSCGGGGSGGGGSEVQLVESGGGLVQPGGSLRLSCAASGFTFSTYAMNWVRQAPGKGLEWVGRIRSKYNNYATYYADSVKGRFTISRDDSKNSLYLQMNSLKTEDTAVYYCVRHGNFGNSYVSWFAYWGQGTLVTVSSGGGGSDKTHTCPPCPAPEAAGPSVFLFPPKPKDTLMISRTPEVTCVVVDVSHEDPEVKFNWYVDGVEVHNAKTKPREEQYNSTYRVVSVLTVLHQDWLNGKEYKCKVSNKALPAPIEKTISKAKGQPREPQVYTLPPSREEMTKNQVSLWCLVKGFYPSDIAVEWESNGQPENNYKTTPPVLDSDGSFFLYSKLTVDKSRWQQGNVFSCSVMHEALHNHYTQKSLSLSPGGGGGSGGGGSGGGGSGGGGSQVQLVQSGAEVKKPGASVKVSCKASGYTFTSYYIHWVRQAPGQGLEWIGCIYPGNVNTNYNEKFKDRATLTVDTSISTAYMELSRLRSDDTAVYFCTRSHYGLDWNFDVWGQGTTVTVSS chain 2: QVQLVQSGAEVKKPGASVKVSCKASGYTFTSYVMHWVRQKPGQGLEWIGYINPYNEGTESTDKFKGRATMTSDKSTSTVYMELSSLRSEDTAVYYCASIYYGYEGTYFGVWGQGTLVTVSSASTKGPSVFPLAPSSKSTSGGTAALGCLVKDYFPEPVTVSWNSGALTSGVHTFPAVLQSSGLYSLSSVVTVPSSSLGTQTYICNVNHKPSNTKVDKKVEPKSCGGGGSGGGGSQAVVTQEPSLTVSPGGTVTLTCRSSTGAVTTSNYANWVQQKPGQAPRGLIGGTNKRAPWTPARFSGSLLGGKAALTITGAQAEDEADYYCALWYSNLWVFGGGTKLTVLGGGGSDKTHTCPPCPAPEAAGPSVFLFPPKPKDTLMISRTPEVTCVVVDVSHEDPEVKFNWYVDGVEVHNAKTKPREEQYNSTYRVVSVLTVLHQDWLNGKEYKCKVSNKALPAPIEKTISKAKGQPREPQVYTLPPSREEMTKNQVSLSCAVKGFYPSDIAVEWESNGQPENNYKTTPPVLDSDGSFFLVSKLTVDKSRWQQGNVFSCSVMHEALHNRFTQKSLSLSPGGGGGSGGGGSGGGGSGGGGSDIQMTQSPSSLSASVGDRVTITCHASQNIYVWLNWYQQKPGKAPKLLIYKASNLHTGVPSRFSGSGSGTDFTLTISSLQPEDFATYYCQQGQTYPYTFGGGTKVEIK light: EIVLTQSPATLSLSPGERATLSCRASSSVSYMHWYQQKPGQAPRPWIYATSNLASGIPARFSGSRSGTDYTLTISSLEPEDFAVYYCQQWSSNTLTFGGGTKVEIKRTVAAPSVFIFPPSDEQLKSGTASVVCLLNNFYPREAKVQWKVDNALQSGNSQESVTEQDSKDSTYSLSSTLTLSKADYEKHKVYACEVTHQGLSSPVTKSFNRGEC | binds | –
Ly2139 (other, Tri-specific antibody: B7H3 Fabs, central CD3 Fv, terminal CD28 Fv; Flexible linker is G4S) chain 1: QVQLVQSGAEVKKPGASVKVSCKASGYTFTSYVMHWVRQKPGQGLEWIGYINPYNEGTESTDKFKGRATMTSDKSTSTVYMELSSLRSEDTAVYYCASIYYGYEGTYFGVWGQGTLVTVSSASTKGPSVFPLAPSSKSTSGGTAALGCLVKDYFPEPVTVSWNSGALTSGVHTFPAVLQSSGLYSLSSVVTVPSSSLGTQTYICNVNHKPSNTKVDKKVEPKSCGGGGSEVQLVESGGGLVQPGGSLRLSCAASGFTFSTYAMNWVRQAPGKGLEWVGRIRSKYNNYATYYADSVKGRFTISRDDSKNSLYLQMNSLKTEDTAVYYCVRHGNFGNSYVSWFAYWGQGTLVTVSSGGGGSDKTHTCPPCPAPEAAGPSVFLFPPKPKDTLMISRTPEVTCVVVDVSHEDPEVKFNWYVDGVEVHNAKTKPREEQYNSTYRVVSVLTVLHQDWLNGKEYKCKVSNKALPAPIEKTISKAKGQPREPQVYTLPPSREEMTKNQVSLWCLVKGFYPSDIAVEWESNGQPENNYKTTPPVLDSDGSFFLYSKLTVDKSRWQQGNVFSCSVMHEALHNHYTQKSLSLSPGGGGGSGGGGSGGGGSGGGGSQVQLVQSGAEVKKPGASVKVSCKASGYTFTSYYIHWVRQAPGQGLEWIGCIYPGNVNTNYNEKFKDRATLTVDTSISTAYMELSRLRSDDTAVYFCTRSHYGLDWNFDVWGQGTTVTVSS chain 2: QVQLVQSGAEVKKPGASVKVSCKASGYTFTSYVMHWVRQKPGQGLEWIGYINPYNEGTESTDKFKGRATMTSDKSTSTVYMELSSLRSEDTAVYYCASIYYGYEGTYFGVWGQGTLVTVSSASTKGPSVFPLAPSSKSTSGGTAALGCLVKDYFPEPVTVSWNSGALTSGVHTFPAVLQSSGLYSLSSVVTVPSSSLGTQTYICNVNHKPSNTKVDKKVEPKSCGGGGSQAVVTQEPSLTVSPGGTVTLTCRSSTGAVTTSNYANWVQQKPGQAPRGLIGGTNKRAPWTPARFSGSLLGGKAALTITGAQAEDEADYYCALWYSNLWVFGGGTKLTVLGGGGSDKTHTCPPCPAPEAAGPSVFLFPPKPKDTLMISRTPEVTCVVVDVSHEDPEVKFNWYVDGVEVHNAKTKPREEQYNSTYRVVSVLTVLHQDWLNGKEYKCKVSNKALPAPIEKTISKAKGQPREPQVYTLPPSREEMTKNQVSLSCAVKGFYPSDIAVEWESNGQPENNYKTTPPVLDSDGSFFLVSKLTVDKSRWQQGNVFSCSVMHEALHNRFTQKSLSLSPGGGGGSGGGGSGGGGSGGGGSDIQMTQSPSSLSASVGDRVTITCHASQNIYVWLNWYQQKPGKAPKLLIYKASNLHTGVPSRFSGSGSGTDFTLTISSLQPEDFATYYCQQGQTYPYTFGGGTKVEIK light: EIVLTQSPATLSLSPGERATLSCRASSSVSYMHWYQQKPGQAPRPWIYATSNLASGIPARFSGSRSGTDYTLTISSLEPEDFAVYYCQQWSSNTLTFGGGTKVEIKRTVAAPSVFIFPPSDEQLKSGTASVVCLLNNFYPREAKVQWKVDNALQSGNSQESVTEQDSKDSTYSLSSTLTLSKADYEKHKVYACEVTHQGLSSPVTKSFNRGEC | binds | –
Ly2121 (other, Tri-specific antibody: B7H3 Fabs, central CD40 Fv, terminal PD-1 Fv) chain 1: QVQLVQSGAEVKKPGASVKVSCKASGYTFTSYVMHWVRQKPGQGLEWIGYINPYNEGTESTDKFKGRATMTSDKSTSTVYMELSSLRSEDTAVYYCASIYYGYEGTYFGVWGQGTLVTVSSASTKGPSVFPLAPSSKSTSGGTAALGCLVKDYFPEPVTVSWNSGALTSGVHTFPAVLQSSGLYSLSSVVTVPSSSLGTQTYICNVNHKPSNTKVDKKVEPKSCGGGGSGGGGSGGGGSGGGGSQVQLVQSGAEVKKPGASVKVSCKASGYTFTGYYMHWVRQAPGQGLEWMGWINPDSGGTNYAQKFQGRVTMTRDTSISTAYMELNRLRSDDTAVYYCARDQPLGYCTNGVCSYFDYWGQGTLVTVSSGGGGSDKTHTCPPCPAPEAAGPSVFLFPPKPKDTLMISRTPEVTCVVVDVSHEDPEVKFNWYVDGVEVHNAKTKPREEQYNSTYRVVSVLTVLHQDWLNGKEYKCKVSNKALPAPIEKTISKAKGQPREPQVYTLPPSREEMTKNQVSLWCLVKGFYPSDIAVEWESNGQPENNYKTTPPVLDSDGSFFLYSKLTVDKSRWQQGNVFSCSVMHEALHNHYTQKSLSLSPGGGGGSGGGGSGGGGSGGGGSQVTLKESGPALVKPTQTLTLTCTFSGFSLSTSGTCVSWIRQPPGKALEWLATICWEDSKGYNPSLKSRLTISKDTSKNQAVLTMTNMDPVDTATYYCARREDSGYFWFPYWGQGTLVTVSS chain 2: QVQLVQSGAEVKKPGASVKVSCKASGYTFTSYVMHWVRQKPGQGLEWIGYINPYNEGTESTDKFKGRATMTSDKSTSTVYMELSSLRSEDTAVYYCASIYYGYEGTYFGVWGQGTLVTVSSASTKGPSVFPLAPSSKSTSGGTAALGCLVKDYFPEPVTVSWNSGALTSGVHTFPAVLQSSGLYSLSSVVTVPSSSLGTQTYICNVNHKPSNTKVDKKVEPKSCGGGGSGGGGSGGGGSGGGGSDIQMTQSPSSVSASVGDRVTITCRASQGIYSWLAWYQQKPGKAPNLLIYTASTLQSGVPSRFSGSGSGTDFTLTISSLQPEDFATYYCQQANIFPLTFGGGTKVEIKGGGGSDKTHTCPPCPAPEAAGPSVFLFPPKPKDTLMISRTPEVTCVVVDVSHEDPEVKFNWYVDGVEVHNAKTKPREEQYNSTYRVVSVLTVLHQDWLNGKEYKCKVSNKALPAPIEKTISKAKGQPREPQVYTLPPSREEMTKNQVSLSCAVKGFYPSDIAVEWESNGQPENNYKTTPPVLDSDGSFFLVSKLTVDKSRWQQGNVFSCSVMHEALHNRFTQKSLSLSPGGGGGSGGGGSGGGGSGGGGSNIQMTQSPSSLSASVGDRVTITCKAGQNVNNYLAWYQQKPGKAPKVLIFNANSLQTGVPSRFSGSGSGTDFTLTISSLQPEDFATYYCQQYNSWPTFGGGTKVEIK light: EIVLTQSPATLSLSPGERATLSCRASSSVSYMHWYQQKPGQAPRPWIYATSNLASGIPARFSGSRSGTDYTLTISSLEPEDFAVYYCQQWSSNTLTFGGGTKVEIKRTVAAPSVFIFPPSDEQLKSGTASVVCLLNNFYPREAKVQWKVDNALQSGNSQESVTEQDSKDSTYSLSSTLTLSKADYEKHKVYACEVTHQGLSSPVTKSFNRGEC | – | 1.68
